Among the data in patent US5175163A, “Triazolyl thioamide derivates” (Egis Gyogyszergyar, priority 1989, dated 1992) are Therapeutical index values, retold here.

The subject of this series is pentetrazole spasm. In words: Inhibition of pentetrazole spasm. The following applies: white mice, Table III. Type of series: in vivo.

In turn, `CN1C(=O)OC(C)(C)C1=O` [Trimethadion, reference compound] yielded a Therapeutical index of 4.3.
